Data taken from patent US7838542B2, “Bicyclic compositions and methods for modulating a kinase cascade” (Kinex Pharmaceuticals, LLC, priority 2006, dated 2010).

Protein sequences, listed by entry. Tags and fused reporters are not part of them. Residues count along the entry.
UniProt P00533, 25-1210 limits assumed: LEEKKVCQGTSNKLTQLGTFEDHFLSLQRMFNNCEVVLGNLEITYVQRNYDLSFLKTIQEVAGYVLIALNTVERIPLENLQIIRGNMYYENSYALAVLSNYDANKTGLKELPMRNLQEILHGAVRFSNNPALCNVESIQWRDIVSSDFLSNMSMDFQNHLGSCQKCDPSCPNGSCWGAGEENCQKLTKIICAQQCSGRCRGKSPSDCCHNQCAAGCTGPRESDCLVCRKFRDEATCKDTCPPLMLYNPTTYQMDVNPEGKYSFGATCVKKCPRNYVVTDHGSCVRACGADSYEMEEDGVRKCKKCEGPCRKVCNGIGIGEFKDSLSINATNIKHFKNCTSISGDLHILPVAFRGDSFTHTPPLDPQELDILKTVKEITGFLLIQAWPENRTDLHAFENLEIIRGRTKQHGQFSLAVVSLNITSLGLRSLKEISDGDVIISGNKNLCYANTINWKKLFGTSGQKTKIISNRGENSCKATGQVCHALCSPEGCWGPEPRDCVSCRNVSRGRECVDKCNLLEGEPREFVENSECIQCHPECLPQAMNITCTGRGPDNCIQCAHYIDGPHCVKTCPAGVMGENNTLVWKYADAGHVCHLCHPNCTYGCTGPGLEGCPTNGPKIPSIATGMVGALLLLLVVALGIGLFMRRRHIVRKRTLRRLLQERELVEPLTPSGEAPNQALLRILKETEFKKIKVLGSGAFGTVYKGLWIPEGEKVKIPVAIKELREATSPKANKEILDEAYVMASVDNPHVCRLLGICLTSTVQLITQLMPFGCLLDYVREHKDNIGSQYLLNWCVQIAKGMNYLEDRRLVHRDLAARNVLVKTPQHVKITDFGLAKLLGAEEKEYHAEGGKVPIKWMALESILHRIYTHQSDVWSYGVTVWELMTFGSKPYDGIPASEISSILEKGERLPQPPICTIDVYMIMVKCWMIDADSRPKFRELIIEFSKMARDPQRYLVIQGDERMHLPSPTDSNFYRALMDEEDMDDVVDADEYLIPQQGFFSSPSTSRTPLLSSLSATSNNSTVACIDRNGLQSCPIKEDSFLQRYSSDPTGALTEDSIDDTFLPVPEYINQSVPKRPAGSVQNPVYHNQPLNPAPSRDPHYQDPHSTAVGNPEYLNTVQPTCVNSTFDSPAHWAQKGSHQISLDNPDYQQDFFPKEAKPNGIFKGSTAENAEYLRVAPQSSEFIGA
UniProt P06241, whole entry: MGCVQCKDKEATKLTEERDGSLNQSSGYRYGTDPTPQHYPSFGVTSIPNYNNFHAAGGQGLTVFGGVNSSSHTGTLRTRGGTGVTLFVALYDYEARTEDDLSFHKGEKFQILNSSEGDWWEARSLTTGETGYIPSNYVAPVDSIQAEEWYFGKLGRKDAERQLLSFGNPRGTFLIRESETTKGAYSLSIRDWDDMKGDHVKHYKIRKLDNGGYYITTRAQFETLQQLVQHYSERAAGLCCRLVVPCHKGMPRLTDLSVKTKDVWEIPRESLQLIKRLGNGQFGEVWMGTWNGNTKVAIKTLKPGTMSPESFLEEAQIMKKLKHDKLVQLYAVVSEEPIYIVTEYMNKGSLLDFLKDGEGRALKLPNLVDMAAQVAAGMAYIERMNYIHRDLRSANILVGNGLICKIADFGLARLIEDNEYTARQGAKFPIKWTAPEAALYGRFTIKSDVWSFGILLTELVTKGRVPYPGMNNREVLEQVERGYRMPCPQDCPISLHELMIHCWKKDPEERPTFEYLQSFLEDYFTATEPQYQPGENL
UniProt P06239, whole entry: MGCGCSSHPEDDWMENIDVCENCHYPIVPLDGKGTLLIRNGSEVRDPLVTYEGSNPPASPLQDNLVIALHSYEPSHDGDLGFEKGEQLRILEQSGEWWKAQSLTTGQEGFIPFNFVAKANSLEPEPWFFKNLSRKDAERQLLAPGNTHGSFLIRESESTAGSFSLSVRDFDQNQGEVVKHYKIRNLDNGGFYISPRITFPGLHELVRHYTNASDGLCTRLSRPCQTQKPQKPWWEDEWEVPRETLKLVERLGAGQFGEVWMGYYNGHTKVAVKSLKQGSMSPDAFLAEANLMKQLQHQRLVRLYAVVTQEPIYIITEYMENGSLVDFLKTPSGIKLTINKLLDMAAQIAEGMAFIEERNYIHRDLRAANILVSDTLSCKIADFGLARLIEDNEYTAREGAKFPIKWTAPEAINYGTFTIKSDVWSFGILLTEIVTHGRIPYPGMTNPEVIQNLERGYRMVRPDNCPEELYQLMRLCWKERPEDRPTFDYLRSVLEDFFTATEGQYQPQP
UniProt P07948, whole entry: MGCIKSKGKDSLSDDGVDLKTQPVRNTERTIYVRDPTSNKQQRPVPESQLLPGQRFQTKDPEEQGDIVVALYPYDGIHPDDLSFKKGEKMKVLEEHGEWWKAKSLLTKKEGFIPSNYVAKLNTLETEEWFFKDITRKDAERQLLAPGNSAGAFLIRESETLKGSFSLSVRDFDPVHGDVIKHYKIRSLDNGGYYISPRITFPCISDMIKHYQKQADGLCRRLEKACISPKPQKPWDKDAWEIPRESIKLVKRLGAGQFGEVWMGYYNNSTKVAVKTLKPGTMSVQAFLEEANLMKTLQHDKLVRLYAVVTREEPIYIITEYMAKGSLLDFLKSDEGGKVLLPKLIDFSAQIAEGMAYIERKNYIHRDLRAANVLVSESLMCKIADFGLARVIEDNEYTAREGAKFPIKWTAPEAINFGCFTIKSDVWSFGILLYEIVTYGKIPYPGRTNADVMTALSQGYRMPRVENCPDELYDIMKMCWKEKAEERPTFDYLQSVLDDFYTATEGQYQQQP
UniProt Q05397, whole entry: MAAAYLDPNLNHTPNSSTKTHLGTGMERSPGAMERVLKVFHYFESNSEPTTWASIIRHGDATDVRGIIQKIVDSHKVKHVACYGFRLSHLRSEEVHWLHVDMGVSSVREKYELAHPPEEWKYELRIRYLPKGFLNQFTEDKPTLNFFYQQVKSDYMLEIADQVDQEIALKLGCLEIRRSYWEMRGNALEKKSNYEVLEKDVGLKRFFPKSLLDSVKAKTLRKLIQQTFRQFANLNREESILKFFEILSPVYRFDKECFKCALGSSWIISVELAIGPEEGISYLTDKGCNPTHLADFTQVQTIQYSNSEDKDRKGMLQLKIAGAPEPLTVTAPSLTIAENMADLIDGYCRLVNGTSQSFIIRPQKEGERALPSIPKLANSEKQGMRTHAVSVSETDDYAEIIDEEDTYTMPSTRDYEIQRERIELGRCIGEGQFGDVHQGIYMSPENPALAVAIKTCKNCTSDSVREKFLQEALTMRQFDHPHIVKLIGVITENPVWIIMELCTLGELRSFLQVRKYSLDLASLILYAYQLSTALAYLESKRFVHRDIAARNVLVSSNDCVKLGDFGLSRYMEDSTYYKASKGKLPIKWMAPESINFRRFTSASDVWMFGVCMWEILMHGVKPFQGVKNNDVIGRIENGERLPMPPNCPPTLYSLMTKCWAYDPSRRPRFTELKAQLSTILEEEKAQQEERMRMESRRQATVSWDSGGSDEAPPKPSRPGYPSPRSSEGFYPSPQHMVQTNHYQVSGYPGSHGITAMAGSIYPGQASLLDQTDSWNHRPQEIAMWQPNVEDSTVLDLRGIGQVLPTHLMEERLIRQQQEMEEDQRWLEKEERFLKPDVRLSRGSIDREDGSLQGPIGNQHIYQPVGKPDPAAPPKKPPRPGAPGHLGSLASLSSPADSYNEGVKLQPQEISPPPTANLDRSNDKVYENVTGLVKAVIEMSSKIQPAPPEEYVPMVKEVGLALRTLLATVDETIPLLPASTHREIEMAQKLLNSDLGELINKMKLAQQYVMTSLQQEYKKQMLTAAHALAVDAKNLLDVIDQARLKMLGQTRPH
UniProt P12931, whole entry: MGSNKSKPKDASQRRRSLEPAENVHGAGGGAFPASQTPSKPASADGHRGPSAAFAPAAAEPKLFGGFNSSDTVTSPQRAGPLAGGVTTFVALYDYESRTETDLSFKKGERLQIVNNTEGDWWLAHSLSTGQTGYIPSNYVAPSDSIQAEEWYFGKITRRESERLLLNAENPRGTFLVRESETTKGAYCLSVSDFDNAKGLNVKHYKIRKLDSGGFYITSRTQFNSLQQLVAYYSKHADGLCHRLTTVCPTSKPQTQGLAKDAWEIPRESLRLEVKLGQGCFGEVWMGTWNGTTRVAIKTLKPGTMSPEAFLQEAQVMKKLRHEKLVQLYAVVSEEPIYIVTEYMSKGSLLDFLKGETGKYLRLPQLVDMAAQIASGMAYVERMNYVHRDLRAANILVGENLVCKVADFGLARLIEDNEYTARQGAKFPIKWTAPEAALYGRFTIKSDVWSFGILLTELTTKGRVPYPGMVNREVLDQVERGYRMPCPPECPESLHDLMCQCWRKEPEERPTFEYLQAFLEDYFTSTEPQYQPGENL
UniProt P28482, whole entry: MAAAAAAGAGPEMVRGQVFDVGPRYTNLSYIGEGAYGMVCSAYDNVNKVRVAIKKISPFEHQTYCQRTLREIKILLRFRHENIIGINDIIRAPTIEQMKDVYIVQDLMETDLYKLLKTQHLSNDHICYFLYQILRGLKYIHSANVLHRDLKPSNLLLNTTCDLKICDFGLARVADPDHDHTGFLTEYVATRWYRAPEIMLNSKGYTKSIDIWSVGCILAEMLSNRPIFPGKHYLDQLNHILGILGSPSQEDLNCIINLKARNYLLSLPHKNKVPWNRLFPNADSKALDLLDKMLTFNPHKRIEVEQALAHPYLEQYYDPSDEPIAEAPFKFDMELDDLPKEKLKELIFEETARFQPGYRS
UniProt Q14289, whole entry: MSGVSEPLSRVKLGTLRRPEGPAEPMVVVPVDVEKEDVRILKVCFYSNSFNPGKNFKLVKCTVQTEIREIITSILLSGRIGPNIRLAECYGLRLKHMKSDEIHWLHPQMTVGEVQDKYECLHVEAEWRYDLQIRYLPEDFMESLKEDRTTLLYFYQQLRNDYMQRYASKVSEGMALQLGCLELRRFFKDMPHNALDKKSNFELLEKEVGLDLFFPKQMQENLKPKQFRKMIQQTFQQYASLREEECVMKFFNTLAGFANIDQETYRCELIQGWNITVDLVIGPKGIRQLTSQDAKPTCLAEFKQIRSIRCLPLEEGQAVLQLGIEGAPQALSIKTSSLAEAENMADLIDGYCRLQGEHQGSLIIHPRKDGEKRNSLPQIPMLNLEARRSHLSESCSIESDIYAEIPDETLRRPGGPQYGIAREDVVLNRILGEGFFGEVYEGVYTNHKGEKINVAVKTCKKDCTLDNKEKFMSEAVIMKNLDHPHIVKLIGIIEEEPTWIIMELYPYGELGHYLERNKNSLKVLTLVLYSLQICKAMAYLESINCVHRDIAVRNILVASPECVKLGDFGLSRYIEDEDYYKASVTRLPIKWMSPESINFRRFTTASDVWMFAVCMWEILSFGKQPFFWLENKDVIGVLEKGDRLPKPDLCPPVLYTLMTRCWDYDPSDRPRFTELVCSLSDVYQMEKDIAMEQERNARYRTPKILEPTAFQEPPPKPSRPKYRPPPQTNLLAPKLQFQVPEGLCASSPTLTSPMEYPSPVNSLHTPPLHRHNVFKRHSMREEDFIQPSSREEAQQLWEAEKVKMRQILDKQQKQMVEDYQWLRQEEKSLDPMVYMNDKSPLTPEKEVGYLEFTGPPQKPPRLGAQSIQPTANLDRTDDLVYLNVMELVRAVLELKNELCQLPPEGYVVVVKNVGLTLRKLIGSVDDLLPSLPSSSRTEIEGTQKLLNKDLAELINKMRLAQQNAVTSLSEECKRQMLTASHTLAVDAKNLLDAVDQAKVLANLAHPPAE
UniProt P43403, whole entry: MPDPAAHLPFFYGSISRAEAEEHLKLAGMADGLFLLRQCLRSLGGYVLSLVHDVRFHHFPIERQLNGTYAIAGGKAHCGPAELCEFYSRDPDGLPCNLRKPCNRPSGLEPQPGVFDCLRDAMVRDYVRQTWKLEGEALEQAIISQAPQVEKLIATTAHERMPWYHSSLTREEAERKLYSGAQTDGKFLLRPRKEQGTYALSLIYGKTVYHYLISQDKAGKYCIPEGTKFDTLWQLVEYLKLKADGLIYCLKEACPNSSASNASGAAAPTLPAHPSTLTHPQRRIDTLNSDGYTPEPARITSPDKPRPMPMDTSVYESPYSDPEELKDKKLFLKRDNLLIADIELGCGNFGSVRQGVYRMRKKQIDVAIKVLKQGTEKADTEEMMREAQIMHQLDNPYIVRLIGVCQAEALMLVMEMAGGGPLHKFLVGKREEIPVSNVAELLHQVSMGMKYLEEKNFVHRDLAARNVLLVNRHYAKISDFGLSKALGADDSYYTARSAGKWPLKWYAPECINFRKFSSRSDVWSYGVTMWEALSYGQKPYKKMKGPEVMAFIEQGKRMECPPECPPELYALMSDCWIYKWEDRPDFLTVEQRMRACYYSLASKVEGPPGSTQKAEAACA

Tests used:
[1] = biological target: Abl (Homo sapiens, UniProt P00519); assay: Isolated kinase assay, Abl; assay type: biochemical
[2] = biological target: EGFRTK (Homo sapiens, UniProt P00533); assay: Isolated kinase assay, EGFRTK; assay type: biochemical
[3] = biological target: Fyn (Homo sapiens, UniProt P06241); assay: Isolated kinase assay, Fyn; assay type: biochemical
[4] = biological target: Lck (Homo sapiens, UniProt P06239); assay: Isolated kinase assay, Lck; assay type: biochemical
[5] = biological target: Lyn (Homo sapiens, UniProt P07948); assay: Isolated kinase assay, Lyn; assay type: biochemical
[6] = biological target: Yes (Homo sapiens, UniProt P07947); assay: Isolated kinase assay, Yes; assay type: biochemical
[7] = test system: PDGF receptor tyrosine kinase; assay: Isolated kinase assay, PDGF receptor tyrosine kinase; assay type: biochemical
[8] = biological target: FAK (Homo sapiens, UniProt Q05397); assay: Isolated kinase assay and titration, FAK; assay type: biochemical
[9] = biological target: Src (Homo sapiens, UniProt P12931); assay: Isolated kinase assay and titration, Src; assay type: biochemical; conditions: for IC50: read-out: IC50, isolated Src, titration data
[10] = test system: c-Src/NIH-3T3 engineered cell line; assay: Src-driven cell growth, c-Src/NIH-3T3; assay type: cell-based
[11] = test system: Src-Y416; assay: Intracellular phosphorylation: Src-Y416 autophosphorylation; assay type: cell-based; conditions: HT29 and c-Src527F/NIH-3T3 cells; 0.2×, 1×, 5×, 25× GI50
[12] = test system: FAK Tyr 925; assay: Intracellular phosphorylation: FAK Tyr 925; assay type: cell-based; conditions: c-Src/NIH-3T3 and HT-29 cells
[13] = test system: Shc Y239/240; assay: Intracellular phosphorylation: Shc Y239/240; assay type: cell-based; conditions: c-Src/NIH-3T3 and HT-29 cells
[14] = test system: Paxillin Y-31; assay: Intracellular phosphorylation: Paxillin Y-31; assay type: cell-based; conditions: c-Src/NIH-3T3 cells
[15] = test system: Caspase-3; assay: Induction of apoptosis via Caspase 3 cleavage; assay type: cell-based; conditions: HT29 and c-Src527F/NIH-3T3 cells
[16] = test system: total phosphotyrosine; assay: Total phosphotyrosine levels; assay type: cell-based; conditions: HT29 and c-Src527F/NIH-3T3 cells
[17] = test system: PDGF receptor tyrosine kinase Y572/574; assay: PDGF receptor autophosphorylation Y572/574; assay type: cell-based; conditions: c-Src/NIH-3T3 cells
[18] = test system: FAK Y397; assay: FAK Y397 autophosphorylation; assay type: cell-based; conditions: c-Src527F/NIH3T3 cells
[19] = test system: EGFR tyrosine kinase; assay: EGFR tyrosine kinase autophosphorylation; assay type: cell-based; conditions: c-Src/NIH-3T3 and HT-29 cells
[20] = test system: Chinchillas; assay: Noise-induced hearing loss, round window application (Example 12); assay type: in vivo, chinchilla; conditions: 4 kHz band noise at 105 dB SPL, four hours, day 1, 7, 21
[21] = test system: osteoclast precursors derived from spleen cells; assay: Osteoclast formation from spleen-derived precursors; assay type: cell-based; conditions: 5 days with RANKL and M-CSF; versus untreated control
[22] = test system: osteoclasts; assay: Osteoclast survival; assay type: cell-based; conditions: 48 hours with RANKL and M-CSF; versus untreated control
[23] = test system: osteoclasts on bone slices; assay: Bone resorption in vitro on bone slices; assay type: cell-based; conditions: versus untreated control
[24] = biological target: FGFR2(h) (Homo sapiens, UniProt P21802); assay: Isolated kinases, percent activity relative to control (Table XV), FGFR2; assay type: biochemical; conditions: @ 10 μM
[25] = biological target: IGF-1R(h) (Homo sapiens, UniProt P08069); assay: Isolated kinases, percent activity relative to control (Table XV), IGF-1R; assay type: biochemical; conditions: @ 10 μM
[26] = biological target: IR(h) (Homo sapiens, UniProt P06213); assay: Isolated kinases, percent activity relative to control (Table XV), IR; assay type: biochemical; conditions: @ 10 μM
[27] = biological target: MAPK2(h) (Homo sapiens, UniProt P28482); assay: Isolated kinases, percent activity relative to control (Table XV), MAPK2; assay type: biochemical; conditions: @ 10 μM
[28] = biological target: PKCα(h) (Homo sapiens, UniProt P17252); assay: Isolated kinases, percent activity relative to control (Table XV), PKCα; assay type: biochemical; conditions: @ 10 μM
[29] = biological target: Pyk2(h) (Homo sapiens, UniProt Q14289); assay: Isolated kinases, percent activity relative to control (Table XV), Pyk2; assay type: biochemical; conditions: @ 10 μM
[30] = biological target: ZAP-70(h) (Homo sapiens, UniProt P43403); assay: Isolated kinases, percent activity relative to control (Table XV), ZAP-70; assay type: biochemical; conditions: @ 10 μM
[31] = test system: PI3 kinase; assay: Isolated kinases, percent activity relative to control (Table XV), PI3 kinase; assay type: biochemical; conditions: @ 10 μM
[32] = test system: NCI human colon cancer cell line HT29; assay: Cell growth, HT29; assay type: cell-based; conditions: read-out: GI50, HT29

COc1cc2c(Nc3c(Cl)ccc4c3OCO4)ncnc2cc1OCCCN1CCCCC1
inhibition of isolated Abl [1]: strong inhibition
percent activity of isolated kinase relative to control, Ab1(h) ([1]; @ 10 μM): 1%
percent activity of isolated kinase relative to control, EGFR(h) ([2]; @ 10 μM): 3%
inhibition of isolated EGFRTK ([2]; listed as AZ28): potent EGFR tyrosine kinase inhibitor
inhibition of isolated EGFRTK ([2]; listed as AstraZeneca ATP competitive inhibitor): strong inhibition
inhibition of isolated Fyn [3]: strong inhibition
percent activity of isolated kinase relative to control, Fyn(h) ([3]; @ 10 μM): 2%
inhibition of isolated Lck [4]: strong inhibition
percent activity of isolated kinase relative to control, Lck(h) ([4]; @ 10 μM): 1%
inhibition of isolated Lyn [5]: strong inhibition
percent activity of isolated kinase relative to control, Lyn(h) ([5]; @ 10 μM): 0%
inhibition of isolated Yes [6]: strong inhibition
percent activity of isolated kinase relative to control, Yes(h) ([6]; @ 10 μM): 1%
inhibition of isolated PDGF receptor tyrosine kinase [7]: not a potent inhibitor
percent activity of isolated kinase relative to control, PDGFRβ(h) ([7]; @ 10 μM): 98%
inhibition of isolated FAK [8]: not a potent FAK inhibitor
times less potent against isolated FAK than against isolated Src [8]: ≥ 100 ×
IC50 ([8]; read-out: IC50, isolated FAK, titration data): > 500 nM
IC50 [9]: 8 nM
times less potent against cell growth than against isolated Src [10]: 10-100 ×
Src-Y416 autophosphorylation [11]: expected dose response
phosphorylation of FAK Tyr 925 [12]: inhibited Src trans-phosphorylation
phosphorylation of Shc Y239/240 [13]: inhibited Src trans-phosphorylation
phosphorylation of Paxillin Y-31 [14]: inhibited Src trans-phosphorylation
induction of apoptosis (Caspase-3 cleavage) [15]: not effective in inducing apoptosis
total phosphotyrosine levels [16]: reduction in the total phosphotyrosine levels
PDGF receptor autophosphorylation [17]: dose response reduction in PDGF receptor autophosphorylation
FAK autophosphorylation (Y397) [18]: some inhibition of FAK autophosphorylation
EGFR tyrosine kinase autophosphorylation [19]: potently inhibits EGFR tyrosine kinase autophosphorylation
average dB threshold shifts, treated ears versus control [20]: lower
formation of osteoclasts (staining) [21]: inhibited the formation of osteoclasts
number of TRAP-positive osteoclasts (formation) [21]: reduced the number of TRAP-positive osteoclasts
number of TRAP-positive osteoclasts (survival) [22]: reduced the number of TRAP-positive osteoclasts
survival of osteoclasts (staining) [22]: inhibited the survival of osteoclasts
number of TRAP-positive osteoclasts on the bone slices (TRAP stain) [23]: reduced the number of TRAP-positive osteoclasts on the bone slices
number of osteoclasts on the bone slices [23]: reduced the number of osteoclasts on the bone slices
number of resorption pits on the bone slices [23]: reduced the number of resorption pits on the bone slices
number of resorption pits on the bone slices (Toluidine Blue) [23]: reduced the number of resorption pits on the bone slices
percent activity of isolated kinase relative to control, FGFR2(h) [24]: 94%
percent activity of isolated kinase relative to control, IGF-1R(h) [25]: 110%
percent activity of isolated kinase relative to control, IR(h) [26]: 125%
percent activity of isolated kinase relative to control, MAPK2(h) [27]: 105%
percent activity of isolated kinase relative to control, PKCα(h) [28]: 111%
percent activity of isolated kinase relative to control, Pyk2(h) [29]: 43%
percent activity of isolated kinase relative to control, ZAP-70(h) [30]: 97%
percent activity of isolated kinase relative to control, PI3 kinase [31]: 99%

CN1CCN(CCOc2ccc(-c3ccc(CC(=O)NCc4cccc(F)c4)nc3)c(F)c2)CC1
potency against isolated Src compared with KX2-391 [9]: a little more potent against isolated Src
IC50 [9]: 5000 nM
GI50 ([10]; read-out: GI50, c-Src/NIH-3T3): 13 nM
GI50 [32]: 794 nM
